One series concerns Meth A tumor. As to the kind of experiment: Meth A tumor mice, one bolus dose of IL-2 or PEG-IL-2 (peak height and shape of clearance curve), Table 1. It is filed as in vivo. As to the method:
Unmodified IL-2 and PEG modified IL-2 were administered to mice who were transplanted with a Meth A tumor. The technical details for the materials and methods are similar to those specifically set out in Zimmerman et al., 1989, Cancer Research, 49:6521-6528 which is hereby incorporated by reference in its entirety.
The purpose of this experiment was to define the peak height and shape of the IL-2 blood concentration curve. Unmodified IL-2 (IL-2) and PEG modified IL-2 (having apparent molecular weights of 95 kD and 160 kD) were given to the mice in one bolus dose. […] Consequently, one can determine the effect of dose and duration by administering IL-2 and PEG-IL-2 molecules that will remain in the body for varying lengths of time.
PEG modified IL-2 (160 kD apparent molecular weight) was also administered to the mice. As shown in Table 5(B), four different treatment schedules were used: Q7D×2, Q4D×3, Q3D×4, and Q2D×5. The 3 total dose levels of 50, 25 or 12.5 mg/kg PEG-IL-2 were based on preliminary single dose studies. A single i.v. dose of PEG-IL-2 at 50, 25 or 12.5 mg/kg was lethal in 5/5, 2/5, or 0/5 Meth A bearing mice, respectively. When these same total doses were divided and delivered by the various schedules, the toxicity of the treatments was schedule dependent. […] The other combinations of dose and schedule were not lethal, with the exception of the 25 mg/kg dose on the Q2D×5 schedule (Table 5(B)). As discussed below, this dependence on the frequency of administration to produce the lethality is related to the minimum plasma concentration of L-2 attained between doses (i.e., the trough).

A further series relates to murine tumor. The note with it: versus IL-2; cited from earlier work.

Consider “95 kD PEG IL-2: PEG modified IL-2 having apparent molecular weight of 95 kD”, for which the results for the “% TGI” value with Meth A tumor (24 mg/kg single bolus), with Meth A tumor (48 mg/kg single bolus) and in the series with Meth A tumor (60 mg/kg single bolus) were 46%, 82% and 93%, respectively. Further, the Cures with Meth A tumor (24 mg/kg single bolus) is given as 0/5; in the series with Meth A tumor (48 mg/kg single bolus), 0/5; in the series with Meth A tumor (60 mg/kg single bolus), 3/5. Also, the toxicity result in the series on Meth A tumor (up to 60 mg/kg) is listed as “not toxic”.

Take “PEGylated IL-2: IL-2 covalently modified with polyethylene glycol (Katre et al., Zimmerman et al.) [reference compound]”: the “increase in total area under the plasma curve” value with murine tumor is listed as 15-20 -fold.

The values above are taken from patent publication US5830452A, “Method for enhancing the anti-tumor therapeutic index of interleukin-2” (Chiron Corporation, priority 1994, dated 1998).
